The structures appear in SMILES notation.

The values below come from paper PMC7144325, “Discovery of novel ATAD2 bromodomain inhibitors that trigger apoptosis and autophagy in breast cells by structure-based virtual screening” (Journal of Enzyme Inhibition and Medicinal Chemistry, 2020).

This assay addresses T1, ATAD2 bromodomain (Homo sapiens, UniProt Q6PL18).
T1 sequence (Q6PL18 980-1092 limits assumed): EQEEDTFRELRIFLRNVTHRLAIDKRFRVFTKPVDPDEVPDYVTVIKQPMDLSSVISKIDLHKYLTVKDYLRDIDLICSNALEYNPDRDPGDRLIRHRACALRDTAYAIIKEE
As to the kind of experiment: TR-FRET assay, ATAD2 bromodomain. It is filed as binding. Conditions: read-out: ATAD2 enzyme inhibition rate. The procedure: The assay was performed by TR-FRET technology using recombinant bromodomain and BET Ligand[27]. The compounds were diluted in 100% DMSO. They were diluted 20 fold in 5% DMSO in Reaction Buffer and 2 µl of the dilution was added to a 20 µl reaction. The reaction mixture incubated for 180 min prior to reading the TR-FRET signal. TR-FRET was recorded as the ratio of the fluorescence of the acceptor and the donor dyes (acceptor/donor). Binding experiments were performed in duplicate at each concentration. The TR-FRET data were analysed using the computer software, Graphpad Prism.

For `CC1=C(C#N)c2nc(N)c(C#N)c(C)c2/C1=C\c1ccc(-c2cc(C(=O)O)ccc2Cl)o1` [AM879], the inhibition – broadly, the share of the control response that was lost under treatment – at 20 µM is 75%.
